The chains behind the UniProt entries cited, without tags or fusion partners. Residues count along the entry.
UniProt Q5S007, 970-2527: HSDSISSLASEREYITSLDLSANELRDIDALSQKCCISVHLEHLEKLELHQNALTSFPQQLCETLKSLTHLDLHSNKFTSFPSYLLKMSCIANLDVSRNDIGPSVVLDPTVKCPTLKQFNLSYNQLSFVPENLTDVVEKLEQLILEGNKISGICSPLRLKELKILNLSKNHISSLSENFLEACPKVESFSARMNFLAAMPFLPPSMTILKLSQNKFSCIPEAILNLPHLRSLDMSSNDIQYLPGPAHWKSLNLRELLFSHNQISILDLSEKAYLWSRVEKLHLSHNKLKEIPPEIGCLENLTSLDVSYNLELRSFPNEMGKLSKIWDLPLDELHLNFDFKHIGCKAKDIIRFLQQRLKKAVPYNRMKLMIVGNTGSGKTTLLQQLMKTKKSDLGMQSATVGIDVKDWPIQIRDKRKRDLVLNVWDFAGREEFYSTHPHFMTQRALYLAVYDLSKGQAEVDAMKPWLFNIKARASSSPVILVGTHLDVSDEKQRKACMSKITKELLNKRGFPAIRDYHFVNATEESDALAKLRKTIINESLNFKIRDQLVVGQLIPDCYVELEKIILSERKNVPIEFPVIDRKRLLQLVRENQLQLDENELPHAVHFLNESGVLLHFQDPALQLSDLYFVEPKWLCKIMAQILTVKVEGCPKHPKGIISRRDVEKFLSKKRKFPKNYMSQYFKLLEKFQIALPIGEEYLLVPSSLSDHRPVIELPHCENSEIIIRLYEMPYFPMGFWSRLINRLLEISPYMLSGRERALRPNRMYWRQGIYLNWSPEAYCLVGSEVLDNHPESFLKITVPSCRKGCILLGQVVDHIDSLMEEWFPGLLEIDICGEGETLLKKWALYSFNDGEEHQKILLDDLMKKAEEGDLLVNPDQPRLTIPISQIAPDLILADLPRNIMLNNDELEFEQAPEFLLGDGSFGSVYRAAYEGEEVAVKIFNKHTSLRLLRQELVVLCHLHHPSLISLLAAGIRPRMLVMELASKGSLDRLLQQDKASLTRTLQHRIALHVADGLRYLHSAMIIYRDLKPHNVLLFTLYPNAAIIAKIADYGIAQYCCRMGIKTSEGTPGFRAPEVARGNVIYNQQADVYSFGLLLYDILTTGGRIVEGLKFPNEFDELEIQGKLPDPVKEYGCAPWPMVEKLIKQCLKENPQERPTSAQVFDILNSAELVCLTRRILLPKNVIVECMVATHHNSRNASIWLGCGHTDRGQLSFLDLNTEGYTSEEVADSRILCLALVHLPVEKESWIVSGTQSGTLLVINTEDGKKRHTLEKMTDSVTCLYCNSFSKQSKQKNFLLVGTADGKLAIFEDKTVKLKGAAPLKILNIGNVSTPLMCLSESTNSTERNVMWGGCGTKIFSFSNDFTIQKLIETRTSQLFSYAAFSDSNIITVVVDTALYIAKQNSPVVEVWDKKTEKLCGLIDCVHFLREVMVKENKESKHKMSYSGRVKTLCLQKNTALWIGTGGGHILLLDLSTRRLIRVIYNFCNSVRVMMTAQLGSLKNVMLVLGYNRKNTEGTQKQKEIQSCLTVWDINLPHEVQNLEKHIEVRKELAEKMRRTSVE
UniProt Q5S007, 970-2527 G2019S: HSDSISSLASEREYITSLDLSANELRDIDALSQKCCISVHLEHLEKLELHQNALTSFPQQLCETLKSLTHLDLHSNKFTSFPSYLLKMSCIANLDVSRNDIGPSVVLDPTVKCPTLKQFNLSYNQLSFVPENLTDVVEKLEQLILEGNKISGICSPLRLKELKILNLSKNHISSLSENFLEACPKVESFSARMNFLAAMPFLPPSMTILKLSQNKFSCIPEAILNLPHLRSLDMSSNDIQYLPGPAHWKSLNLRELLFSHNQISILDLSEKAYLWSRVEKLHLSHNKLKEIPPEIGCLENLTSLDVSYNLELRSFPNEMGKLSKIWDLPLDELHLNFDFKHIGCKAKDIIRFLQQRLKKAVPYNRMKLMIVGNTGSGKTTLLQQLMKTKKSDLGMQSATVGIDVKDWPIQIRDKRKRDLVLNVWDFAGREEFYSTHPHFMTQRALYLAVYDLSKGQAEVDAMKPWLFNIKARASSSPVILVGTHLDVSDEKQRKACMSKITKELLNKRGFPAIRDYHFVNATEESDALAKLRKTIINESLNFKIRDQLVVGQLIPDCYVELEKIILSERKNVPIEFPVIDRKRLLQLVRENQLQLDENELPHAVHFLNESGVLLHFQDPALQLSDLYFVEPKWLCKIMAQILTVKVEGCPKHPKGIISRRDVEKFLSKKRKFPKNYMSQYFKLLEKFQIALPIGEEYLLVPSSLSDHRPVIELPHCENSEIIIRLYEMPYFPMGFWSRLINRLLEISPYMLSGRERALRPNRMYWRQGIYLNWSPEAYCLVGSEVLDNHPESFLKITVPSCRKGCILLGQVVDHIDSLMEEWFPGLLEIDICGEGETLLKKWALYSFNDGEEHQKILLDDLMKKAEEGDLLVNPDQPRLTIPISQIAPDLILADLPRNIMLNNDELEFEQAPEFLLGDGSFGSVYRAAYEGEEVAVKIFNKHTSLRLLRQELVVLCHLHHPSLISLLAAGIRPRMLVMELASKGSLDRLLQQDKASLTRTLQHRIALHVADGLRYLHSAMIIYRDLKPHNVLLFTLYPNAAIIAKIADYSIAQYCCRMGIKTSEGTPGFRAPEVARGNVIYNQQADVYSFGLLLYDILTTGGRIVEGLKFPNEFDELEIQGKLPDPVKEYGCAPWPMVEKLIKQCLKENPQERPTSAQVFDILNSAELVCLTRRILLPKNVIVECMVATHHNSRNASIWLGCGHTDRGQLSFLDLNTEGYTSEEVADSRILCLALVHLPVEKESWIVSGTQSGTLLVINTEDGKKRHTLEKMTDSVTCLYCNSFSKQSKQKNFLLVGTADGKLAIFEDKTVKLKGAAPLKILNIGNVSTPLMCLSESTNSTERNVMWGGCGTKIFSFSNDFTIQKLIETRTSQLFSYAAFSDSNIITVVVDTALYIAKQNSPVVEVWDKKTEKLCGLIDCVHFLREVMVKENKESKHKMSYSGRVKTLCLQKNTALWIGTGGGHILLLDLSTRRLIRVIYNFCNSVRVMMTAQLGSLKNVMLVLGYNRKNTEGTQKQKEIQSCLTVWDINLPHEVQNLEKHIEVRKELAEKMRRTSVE

According to patent US9156845B2, “4-(substituted amino)-7H-pyrrolo[2,3-d] pyrimidines as LRRK2 inhibitors” (Pfizer Inc., priority 2012, dated 2015):

How the values were obtained:
[1] = biological target: GST-tagged truncated LRRK2 (Homo sapiens (Human), UniProt Q5S007); assay: LRRK2 Lantha Screen kinase assay; format: biochemical; conditions: geometric mean of 2-5 determinations unless otherwise indicated (a: >=6 determinations; b: single determination); read-out: LRRK2 WT IC50
Description: LRRK2 kinase activity was measured using Lantha Screen technology from Invitrogen. GST-tagged truncated LRRK2 from Invitrogen (Cat # PV4874) was incubated with a fluorescein-labeled peptide substrate based upon ezrin/radixin/moesin (ERM), also known as LRRKtide (Invitrogen cat #PR8976A), in the presence of a dose response of compound. Upon completion, the assay was stopped and detected with a terbium labeled anti-phospho-ERM antibody (Invitrogen, cat #PR8975A). […] The compound dose response was prepared by diluting compound to a top concentration of 3.16 mM in 100% DMSO and serial diluted by half-log in DMSO 11 times. Aliquots (3.5 μL) of the 100% DMSO dose response were mixed with 46.5 μL water then 1 μL of this mixture was added to the 3 μL substrate mix in the 384-well plate. The kinase reaction was started with 3 μL of a working solution of LRRK2 enzyme at a concentration of 4 μg/mL. The final reaction concentrations were 100 nM LRRKtide, 50 μM ATP, 1.7 μg/mL LRRK2 enzyme and a compound dose response with a top dose of 32 μM. […] After an incubation of 1 hour at room temperature, the plate was read on an Envision with an excitation wavelength of 340 nm and a reading emission at both 520 nm and 495 nm. […]

mutant G2019S LRRK2 = mutant G2019S LRRK2 (Homo sapiens (Human), UniProt Q5S007, G2019S); assay: LRRK2 Lantha Screen kinase assay, mutant enzyme; format: biochemical; conditions: geometric mean of 2-5 determinations unless otherwise indicated (a: >=6 determinations; b: single determination)
Description: LRRK2 kinase activity was measured using Lantha Screen technology from Invitrogen. GST-tagged truncated LRRK2 from Invitrogen (Cat # PV4874) was incubated with a fluorescein-labeled peptide substrate based upon ezrin/radixin/moesin (ERM), also known as LRRKtide (Invitrogen cat #PR8976A), in the presence of a dose response of compound. Upon completion, the assay was stopped and detected with a terbium labeled anti-phospho-ERM antibody (Invitrogen, cat #PR8975A). […] The compound dose response was prepared by diluting compound to a top concentration of 3.16 mM in 100% DMSO and serial diluted by half-log in DMSO 11 times. Aliquots (3.5 μL) of the 100% DMSO dose response were mixed with 46.5 μL water then 1 μL of this mixture was added to the 3 μL substrate mix in the 384-well plate. The kinase reaction was started with 3 μL of a working solution of LRRK2 enzyme at a concentration of 4 μg/mL. The final reaction concentrations were 100 nM LRRKtide, 50 μM ATP, 1.7 μg/mL LRRK2 enzyme and a compound dose response with a top dose of 32 μM. The reaction was allowed to progress at room temperature for two hours and then stopped with the addition of 7 μL of detection buffer (20 mM Tris pH 7.6, 0.01% NP-40, 0.02% NaN3, 6 mM EDTA with 2 nM terbium labeled anti-phospho-ERM). After an incubation of 1 hour at room temperature, the plate was read on an Envision with an excitation wavelength of 340 nm and a reading emission at both 520 nm and 495 nm. The ratio of the 520 nm and 495 nm emission was used to analyze the data.
Inhibition of mutant G2019S LRRK2 (Invitrogen cat #PV4881) was measured in the exact same method. All final concentrations of substrate ATP and enzyme were the same.

IC50 [1] [nM]	IC50 (mutant G2019S LRRK2) [nM]	SMILES
139	591	N#Cc1cccc(-c2c[nH]c3ncnc(N4C[C@@H]5CCO[C@@H]5C4)c23)c1 (relative stereo) [Example 206, rel-3-{4-[(3aS,6aS)-hexahydro-5H-furo[2,3-c]pyrrol-5-yl]-7H-pyrrolo[2,3-d]pyrimidin-5-yl}benzonitrile]
–	73	Cc1nc(C2CN(c3ncnc4[nH]cc(-c5cccc(C#N)c5)c34)CCO2)no1 (single isomer, unassigned) [Example 195]
10	41	Cc1nc(C2CN(c3ncnc4[nH]cc(-c5cccc(C#N)c5)c34)CCO2)no1 (centres unmarked) [Example 112, 3-{4-[2-(5-methyl-1,2,4-oxadiazol-3-yl)morpholin-4-yl]-7H-pyrrolo[2,3-d]pyrimidin-5-yl}benzonitrile]
